Assay: Compatibility of nanocrystalline silver with excipients
Type: physicochemical
Settings: 10% aqueous solution of excipient mixed with nanocrystalline silver in glass vial, 40° C. overnight

Q: For Hexylene glycol, which “Reaction with nanocrystalline silver” value is on record?
A: The value was “Grey - no discoloration”.

From patent US20080050452A1, “METAL-CONTAINING FORMULATIONS AND METHODS OF USE” (priority 2006, published 2008)
